## Apparent affinities of Ab-14 variants for a coronavirus HR2 peptide

Values reported by Li et al. 2023, doi:10.1038/s41467-023-39022-2 (FLAb copy).

The target is the same throughout: PDVDLGDISGINAS, from the HR2 region of SARS-CoV-2 spike.

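The parent was found by panning a naive human phage display library on the peptide. These sequences belong to a second round, designed from the earlier measurements on random variants of the parent. Group labels follow the data file (Ctrl: baseline library sampled from a position-specific scoring matrix, with some repeated check sequences; Rand: our label for a block that the file lists under HC and that is probably the random mutants of the ten best first-round binders; En: ensemble of fine-tuned language models; HC: hill climbing; Gen: genetic algorithm; Gibbs: Gibbs sampling; a sequence that several methods proposed may carry one label only). Affinity was read by AlphaSeq, a pooled yeast mating assay with surface-displayed partners. Binding brings cells together so that they mate, and sequencing counts the barcode pairs among the diploids. A regression on co-assayed BCL2-family reference pairs converts the normalised counts of each replicate to an apparent Kd. Mating was done six times.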

Parent: Ab-14, a human scFv built as VH, the linker GGGGSGGGGSGGGGS, VL. Only the CDRs of the heavy chain vary.
VH: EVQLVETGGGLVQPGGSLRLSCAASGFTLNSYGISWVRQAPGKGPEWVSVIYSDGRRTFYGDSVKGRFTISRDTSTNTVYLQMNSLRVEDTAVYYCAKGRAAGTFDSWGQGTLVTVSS
VL: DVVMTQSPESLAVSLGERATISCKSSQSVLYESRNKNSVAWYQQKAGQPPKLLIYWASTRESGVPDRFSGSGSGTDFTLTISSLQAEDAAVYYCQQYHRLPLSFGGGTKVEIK

The parent's heavy chain CDRs are GFTLNSYGIS, VIYSDGRRTFYGDSVK, GRAAGTFDS; each variant's own CDRs replace them letter for letter.
Variants here have more than six changes.
The read-out is the apparent dissociation constant on a log10 scale (nM): the lower, the stronger.
A pair that was not seen in that replicate is written "ND"; this usually means weak binding, but a binder can also be missed.
The authors averaged sequences with at least three values out of six and counted those with two or fewer as poor binders.

- GFNLNEYGIS, VIYADGRRKFYADSVK, GNVAGTFDS [En_HC] -> 0.42, -0.22, -0.07, 0.24, 0.04, 0.12
- GFDLNEYGIS, VIYADGKRTFYADSVK, GNNAGTFDS [En_HC] -> -0.19, -0.59, -0.58, -0.73, -0.65, -0.58
- GFDLDEYGIS, VIYADGQRTAYADSVK, GEVAGTFDV [En_Gen] -> 0.18, 0.58, -0.31, 0.67, 0.27, 0.80
- GFDLDEYGIS, VIYADGKRTVYADSVK, GNQAGTFDV [En_Gen] -> 0.39, -0.36, 0.41, -0.01, 0.19, 0.12
- GESLESYGIS, VIYADGMRTSYTNSVK, GVWAGTFDL [En_Gibbs] -> 2.45, 2.30, 1.97, 1.91, ND, 2.96
- GFDLNEYGIS, VIYADGRRTFYSDSVK, GENAGIFDI [En_HC] -> ND, ND, ND, ND, ND, ND
- GKTLDEYGIS, VIYADGMRTSYIDSVK, GGIDGWRFI [En_Gibbs] -> ND, ND, ND, ND, ND, ND
- GGDLNEYGIS, VIYADGVRKNYIDSVK, GQNGDVLNI [En_Gibbs] -> ND, ND, ND, ND, ND, ND
- GMKLQDYGIS, VIYADGRRTAFKESVK, GQIAGTFNF [En_Gibbs] -> 0.76, ND, ND, ND, 1.99, ND
- GFDLNEYGIS, VIYADGRRTAYTDSVK, GENAGTFDQ [En_HC] -> -0.14, -0.41, -0.24, -0.30, -0.73, 0.09
- GFTLNQYPIS, VIYAWGRRTFYSDSVK, GRACGFFDS [Rand] -> ND, ND, ND, ND, ND, ND
- GFDLNEYGIS, VIYADGKRTAYIDSVK, GENAGTFDL [En_Gen] -> 1.71, 3.31, 2.09, 1.67, 2.99, ND
- GFDLNEYGIS, VIYADGLRTSYDDSVK, GQLAGTFDL [En_HC] -> 0.03, -0.19, 0.01, -0.27, -0.29, 0.08
- GFDLDEYGIS, VIYADGQRTVYADSVK, GNNAGTFDV [En_Gen] -> -0.12, -0.82, -0.11, -0.37, -0.40, -0.31
- GFDLDEYGIS, VIYADGQRTAYADSVK, GNNAGTFDT [En_Gen] -> -0.34, -0.37, -0.49, -0.65, -0.73, -0.44
- GFDIEEYGIS, VIYADGMRSSYSQSVK, GEYSGNIYV [En_Gibbs] -> ND, ND, ND, 1.04, ND, 2.24
- GFDINEYGIS, VIYADGIRTSYQNKVK, GDSGGIINV [En_Gibbs] -> ND, ND, ND, 4.70, 2.42, ND
- GFDLNEYGIS, VIYADGRRTFYADSVK, GEQAGTFDL [En_HC] -> -1.17, -1.10, -0.51, -0.96, ND, -1.28
- GFDLNEYGIS, VIYADGRRTFYADSVK, GSTAGTFNM [En_HC] -> -0.45, -0.85, -0.50, -0.96, -0.86, -0.65
- GFDLNEYGIS, VIYADGMRKFYADKVK, GENAGTFNV [En_HC] -> 0.24, -0.20, 0.06, -0.50, 0.02, -0.07
- GFDLNEYGIS, VIYADGRRTFYSDSVK, GTVAGTFDI [En_HC] -> -0.55, -0.36, -0.38, -0.91, -0.42, -0.19
- GFDLNEYGIS, VIYADGIRTAYADDVK, GNVAGTFDV [En_Gen] -> 0.46, -0.17, -0.25, -0.19, -0.30, 0.34
- GFEVDEYGIS, VIYADGKRSMYADKVK, GVIAGMMHV [En_Gibbs] -> 0.57, 0.77, 1.11, 1.03, 0.87, 0.61
- GFDLDEYGIS, VIYADGSRTAYADDVK, GNNAGTFDV [En_Gen] -> ND, ND, ND, ND, ND, ND
- GFDINEYGIS, VIYADGRRTAYADSVK, GEIAGTFDS [En_HC] -> -0.59, -0.40, -0.63, -0.64, -0.51, -0.39
- EFDLNNYGIS, VIYADGLRTAYETSVK, GDNAGTFVS [En_Gibbs] -> ND, ND, ND, ND, ND, ND
- GFDLNEYGIS, VIYADGRRTFYTDSVK, GANAGTFDD [En_HC] -> ND, ND, ND, ND, ND, ND
- GFDLNEYGIS, VIYADGKRTAYADDVK, GGNAGTFDV [En_Gen] -> -0.13, -0.27, -0.23, -0.69, -0.36, -0.40
- GFDLDEYGIS, VIYADGQRTAYADSVK, GEVAGTFDA [En_Gen] -> -0.53, -0.71, -0.29, -0.93, -0.36, 0.86
- GFDLNEYGIS, VIYADGRRTAYSDSVK, GEVAGTFVQ [En_HC] -> -0.04, -0.26, -0.36, -0.18, -0.43, -0.13
- GFDLNEYGIS, VIYADGRRTAYADSVK, GNQAGTFDM [En_Gen] -> -0.07, ND, 0.12, 0.63, ND, 0.48
- GFDLNEYGIS, VIYADGLRTSYADSVK, GQLAGTFDV [En_HC] -> -0.47, -0.51, -0.72, -0.69, -0.68, -0.61
- GFTLNSYGIS, VIYSDGLRTFYSDSVK, GGQPGTFFL [Ctrl] -> ND, ND, ND, ND, ND, ND
- GFDLEEYGIS, VIYADGMRTQYINAVK, GIIGDNMDL [En_Gibbs] -> ND, ND, ND, ND, ND, ND
- GFDLNEYGIS, VIYADGQRTAYSDSVK, GNNAGTFDV [En_Gen] -> -0.20, -0.55, -0.67, -0.82, -0.67, -0.47
- GFDLDEYGIS, VIYADGMRVSYDQNVK, GRGGVSFVF [En_Gibbs] -> ND, ND, ND, ND, ND, ND

A sequence measured in both rounds can read differently, since the two assays cover different ranges.
Of ten entries with the parent sequence, four were seen in most replicates (averages 0.34 to 2.37), three in one and three in none, so single entries are noisy.
Empty control strains, which show no peptide, gave a signal in 1% of pairings with all heavy chain designs; the median was 2.08 and 95% of these signals were weaker than 0.84. No background was subtracted.